Target: T1, fusion protein of a peptide fragment containing the trastuzumab-binding region of HER2 (HER2-Tras-binding fragment) and glutathione S-transferase (GST)
T1 chain: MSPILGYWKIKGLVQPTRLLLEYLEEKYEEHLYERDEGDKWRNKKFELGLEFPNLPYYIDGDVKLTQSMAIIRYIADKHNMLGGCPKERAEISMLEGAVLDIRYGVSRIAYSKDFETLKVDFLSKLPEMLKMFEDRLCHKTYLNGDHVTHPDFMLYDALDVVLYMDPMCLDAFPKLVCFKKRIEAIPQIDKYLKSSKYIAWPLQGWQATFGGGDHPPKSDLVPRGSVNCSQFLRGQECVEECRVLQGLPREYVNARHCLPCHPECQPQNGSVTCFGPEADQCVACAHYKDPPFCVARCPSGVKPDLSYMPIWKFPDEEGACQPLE
Test: SPR (Biacore T200), GST-HER2 captured by GST Capture Kit, 25 C

Kd: 0.59 nM
B1: cyclic Tras-scFv cyclized by an intein (scFv)
scFv: CFNGTHHHHHHAAA[skipping about 120 residues]GGGGSGGGGSGGGGSDIQMTQSPSSLSASVGDRVTITCRASQDVNTAVAWYQQKPGKAPKLLIYSASFLYSGVPSRFSGSRSGTDFTLTISSLQPEDFATYYCQQHYTTPPTFGQGTKVEIKSGSGSS
modifications: not checked
